Bioassay records deposited in PubChem BioAssay by Broad Institute.
An excerpt weighted towards active compounds, which were near 1.8% of everything screened.
Cneo AK release: Cryptococcus neoformans lysis via adenylate kinase release; C. neoformans lysis, adenylate kinase release luminescence, 4 h; normalised: neutral wells 0, clomiphene wells 100; lysis activity, % at 15 µM; 360,000 compounds, 0.2% hits;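 active = mean lysis activity across replicates of at least 80%, whatever share of replicates individually reach that level; inactive = mean lysis activity below 80%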
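Signal: Adenylate kinase release luminescence | Assay system: Log-phase Cryptococcus neoformans yeast cells | Input: Cells at 5 × 10^6 per mL | Buffer or medium: Fresh YPD growth medium | Compound: Single dose | Schedule: Static 4 h at 37 °C with compound, 1 h detection | Controls: Clomiphene | Read-out: Luminescence rise reflecting yeast cell lysis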
E-sel inducer: E-selectin induction on HUVECs; HUVEC E-selectin immunofluorescence imaging; normalized: neutral wells 0, TNF-alpha wells 100; 260,000 compounds, 0.37% hits; activation, % at 7.58 µM;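 active = mean E-selectin-positive cell signal at least 10% of the positive control, reached in at least 60% of replicates, without over 20% cell loss; inconclusive = no rule given, readout overlaps actives, possibly toxicity-flagged; inactive = the rest, including those meeting only one limit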
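material = human umbilical vein endothelial cells (HUVEC), E-selectin induction | quantity = 3,000 cells/well | medium = EGM-2 growth medium on 0.1% gelatin-coated wells | technique = immunofluorescence imaging | read-out basis = % PE-positive cells | control set = TNF-alpha positive control, DMSO neutral control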
DENV2 CPE: protects cells from dengue virus 2 cytopathic effect. DENV2-infected cells, cytopathic effect rescue, plate reader. CPE inhibition, % at 9.99 µM. 350,000 compounds, 1.7% hits; in the data active = CPE inhibition above about 20%, passing the limit was not always enough; inconclusive = no clear call, values can overlap the other calls; tested in BHK-21 cells;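 note: 0% = median of neutral control wells and 100% = median of positive control wells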
Yeast UUG start: modulators of start codon recognition fidelity in yeast; AID 602363; hit rate 0.13% among 350,000; activity score, % at 18.7 µM; S. cerevisiae UUG-firefly luciferase reporter, luminescence/redox ratio;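 active = replicate mean at a twofold rise or more, about +100% in these data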;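 note: firefly luciferase made from a UUG start codon reports start codon fidelity; reporter light over untreated wells divided by growth signal over untreated wells; some hits fall short of that in this replicate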
Numbers without * were called inactive; ? = inconclusive; · = no result given; ! = not confirmed by another sample.

Field names: A = Cneo AK release; B = E-sel inducer; C = DENV2 CPE; D = Yeast UUG start
1. C[C@@H]1CN([C@@H](C)CO)C(=O)c2cc(NC(=O)C3CCCCC3)ccc2O[C@@H](C)CCCCO[C@@H]1CN(C)C(=O)c1ccccc1
  A: 48.2	B: -0.1	C: -12.3	D: 12.5

2. CCCN1[C@@H]2Cn3c(ccc(-c4cccc(OC)c4)c3=O)[C@H]1[C@@H](C(=O)NCC)[C@@H]2CO
  A: 1.9	B: -1.6	C: -9.0	D: ·

3. C[C@@H]1CCCCO[C@H](CN(C)C(=O)Cc2ccccc2)[C@@H](C)CN([C@H](C)CO)C(=O)c2cc(NC(=O)Nc3cccc4ccccc34)ccc2O1
  A: 51.4	B: 0.1	C: 14.4	D: 33.6

4. C[C@@H]1CCCCO[C@@H](CN(C)C(=O)Nc2ccc3c(c2)OCO3)[C@@H](C)CN([C@@H](C)CO)C(=O)c2cc(NC(=O)Nc3cccc4ccccc34)ccc2O1
  A: ·	B: -0.1	C: 61.0*	D: ·

5. C[C@@H]1CCCCO[C@H](CN(C)Cc2ccc3c(c2)OCO3)[C@H](C)CN([C@H](C)CO)C(=O)c2cc(NC(=O)Nc3cccc4ccccc34)ccc2O1
  A: 88.2*	B: 0.2	C: -25.4	D: 32.7

6. C[C@@H]1CCCCO[C@@H](CN(C)Cc2ccccc2)[C@@H](C)CN([C@H](C)CO)C(=O)c2cc(NC(=O)Nc3cccc4ccccc34)ccc2O1
  A: 5.9	B: 0.2	C: 21.0*!	D: -7.0

7. C[C@H](CO)N1C[C@H](C)[C@@H](CN(C)C(=O)Cc2ccccc2)OCCCC[C@H](C)Oc2ccc(NC(=O)Nc3cccc4ccccc34)cc2C1=O
  A: -1.0	B: 0.4	C: 23.6*	D: -11.1

8. O=C(C1CCC1)N1CCCCN2[C@H](C1)[C@H](c1ccc(C#CC3CCCC3)cc1)[C@@H]2CO
  A: 3.4	B: ·	C: -6.0	D: 16.4

9. Cc1ccc([C@@H]2[C@@H]3C(=O)N(c4ccccc4)C(=O)[C@@H]3[C@]3(C)C(=O)N(CC4CC4)CC(=O)N23)o1
  A: -3.6	B: 0.1	C: 50.4*	D: -11.1

10. C[C@@H]1CN([C@H](C)CO)C(=O)c2cc(C#CCN(C)C)cnc2O[C@H]1CN(C)C(=O)Nc1cccc(F)c1
  A: 2.8	B: -0.1	C: -3.9	D: 20.1

11. CCOC(=O)C1(Cc2ccccc2C)CCCN(C(=O)c2cc(C3CC3)[nH]n2)C1 (centres undefined)
  A: 2.4	B: 6.6	C: 25.8*	D: 0.2

12. CCOC(=O)C1(Cc2ccccc2C)CCCN(C(=O)c2ccccn2)C1 (centres undefined)
  A: 0.6	B: 1.4	C: 0.4	D: -12.3

13. C[C@H](CO)N1C[C@H](C)[C@@H](CN(C)C(=O)Cc2ccccc2)OCCCC[C@H](C)Oc2ccc(NC(=O)Nc3ccc(C(F)(F)F)cc3)cc2C1=O
  A: -2.2	B: 1.5	C: -1.9	D: -7.5

14. C[C@@H]1CCCCO[C@H](CN(C)C(=O)Cc2ccccc2)[C@H](C)CN([C@@H](C)CO)C(=O)c2cc(NC(=O)Nc3ccc(C(F)(F)F)cc3)ccc2O1
  A: -0.6	B: 1.7	C: 44.2*	D: -12.7

15. C[C@@H]1CN([C@H](C)CO)C(=O)c2cc(NC(=O)Nc3ccc(C(F)(F)F)cc3)ccc2O[C@@H](C)CCCCO[C@@H]1CN(C)C(=O)Cc1ccccc1
  A: 0.0	B: 1.0	C: 81.9*	D: -13.1

16. C[C@@H]1CCCCO[C@H](CN(C)C(=O)Cc2ccccc2)[C@@H](C)CN([C@@H](C)CO)C(=O)c2cc(NC(=O)Nc3ccc(C(F)(F)F)cc3)ccc2O1
  A: -1.6	B: 0.9	C: ?	D: -10.8

17. COc1ccc(NC(=O)Nc2ccc3c(c2)C(=O)N([C@H](C)CO)C[C@H](C)[C@H](CN(C)S(=O)(=O)c2ccc(C)cc2)O3)cc1
  A: -7.9	B: -0.2	C: 16.8	D: 2.1

18. COc1ccc(CC(=O)c2ccc(O)cc2O)cc1
  A: -14.9	B: ·	C: 75.7*	D: 7.5

19. O=C(Cc1ccc(Br)cc1)c1ccc(O)cc1O
  A: -4.7	B: ·	C: ·	D: 30.8

20. COc1c(Cl)cc(Br)c(OC)c1C(=O)NC(=O)Nc1nc(C)cc(C)n1
  A: ·	B: -4.0	C: 32.0*	D: ·

21. C[C@H]1CN([C@@H](C)CO)C(=O)c2cc(NS(=O)(=O)c3cccs3)ccc2O[C@H]1CN(C)C(=O)Nc1ccc2c(c1)OCO2
  A: -1.3	B: -7.1	C: 3.8	D: 3.9

22. CC(C)NC(=O)Nc1ccc2c(c1)C(=O)N([C@H](C)CO)C[C@@H](C)[C@@H](CN(C)C)OCCCC[C@H](C)O2
  A: ·	B: -0.1	C: ·	D: ·

23. CC(C)C[C@@H](CN=[N+]=[N-])N1CCN(CC(C)C)CCC1=O
  A: 1.4	B: -0.1	C: 87.0*	D: -6.7

24. CC(C)C[C@@H](CN=[N+]=[N-])N1CCN(C)CCC1=O
  A: 0.0	B: 0.0	C: -13.2	D: 6.4

25. C[C@@H]1CN([C@@H](C)CO)S(=O)(=O)c2ccc(Br)cc2O[C@@H]1CN(C)Cc1ccncc1
  A: -2.3	B: 0.0	C: -0.9	D: 11.0

Three compounds already listed, sorted by their value in DENV2 CPE, ascending:
| item | Compound | DENV2 CPE |
| --- | --- | --- |
| 21 | C[C@H]1CN([C@@H](C)CO)C(=O)c2cc(NS(=O)(=O)c3cccs3)ccc2O[C@H]1CN(C)C(=O)Nc1ccc2c(c1)OCO2 | 3.8 |
| 3 | C[C@@H]1CCCCO[C@H](CN(C)C(=O)Cc2ccccc2)[C@@H](C)CN([C@H](C)CO)C(=O)c2cc(NC(=O)Nc3cccc4ccccc34)ccc2O1 | 14.4 |
| 17 | COc1ccc(NC(=O)Nc2ccc3c(c2)C(=O)N([C@H](C)CO)C[C@H](C)[C@H](CN(C)S(=O)(=O)c2ccc(C)cc2)O3)cc1 | 16.8 |

Reformatted: entries from further up
22) CC(C)NC(=O)Nc1ccc2c(c1)C(=O)N([C@H](C)CO)C[C@@H](C)[C@@H](CN(C)C)OCCCC[C@H](C)O2
  Cneo AK release = ·	E-sel inducer = -0.1	DENV2 CPE = ·	Yeast UUG start = ·

23) CC(C)C[C@@H](CN=[N+]=[N-])N1CCN(CC(C)C)CCC1=O
  Cneo AK release = 1.4	E-sel inducer = -0.1	DENV2 CPE = 87.0*	Yeast UUG start = -6.7

New compounds follow.
(26) CCCNC(=O)N1CC2(CCN(Cc3cccc(OC)c3)CC2)c2c([nH]c3cc(OC)ccc23)[C@@H]1CO
(27) COc1ccc(OC)c(CN2C(=O)CN(S(C)(=O)=O)CC2(C)C(=O)NCc2ccccc2)c1 (centres undefined)
(28) O=C(NCCCN1CCCCC1)C1CCC(=O)N1CCc1ccccc1 (centres undefined)
(29) O=C(NCCCN1CCOCC1)C1CCC(=O)N1CCc1ccccc1 (centres undefined)
(30) CCOC(=O)NCc1ccc2[nH]c(C)cc2c1
(31) CCCNC(=O)N1C[C@@H](C)[C@H](OC)CN(C)C(=O)c2ccc(NS(C)(=O)=O)cc2OC[C@H]1C

entry no.	26	27	28	29	30	31
Cneo AK release	·	·	-0.2	0.9	136.4*	52.1
E-sel inducer	-0.5	0.2	·	0.0	·	-0.3
DENV2 CPE	-3.9	32.4*	·	28.6*	1.5	8.5
Yeast UUG start	·	·	2.4	-9.3	-10.6	-3.3

Values in list order from the list:
Compounds 26 to 31 in DENV2 CPE: -3.9, 32.4*, ·, 28.6*, 1.5, 8.5

Next part.
(32) C[C@H]1CN([C@@H](C)CO)C(=O)c2cc(C#CC(C)(C)O)cnc2O[C@H]1CN(C)Cc1cncnc1
(33) C[C@@H]1CN([C@H](C)CO)C(=O)c2cc(C#CC(C)(C)O)cnc2O[C@@H]1CN(C)Cc1cncnc1
(34) C/C=C/c1cnc2c(c1)C(=O)N([C@@H](C)CO)C[C@H](C)[C@H](CN(C)Cc1cncnc1)O2
(35) COc1cccc(S(=O)(=O)Nc2ccc3c(c2)OC[C@@H](C)N(Cc2cc(F)ccc2F)C[C@@H](C)[C@H](OC)CN(C)C3=O)c1
(36) CCOC(=O)c1cccc(NC(=O)Nc2ccc3c(c2)C(=O)OC3)c1
(37) C[C@@H]1CN([C@@H](C)CO)S(=O)(=O)c2ccc(-c3ccc(C(=O)N(C)C)cc3)cc2O[C@H]1CN(C)C(=O)C1CCC1

entry no.	32	33	34	35	36	37
Cneo AK release	69.6	84.9*	-1.0	-0.9	18.1	7.1
E-sel inducer	0.3	0.2	0.3	-0.1	61.1*	-0.2
DENV2 CPE	32.8*	-9.0	37.2*	12.9	-2.1	3.8
Yeast UUG start	14.4	13.9	-4.3	4.0	-8.6	·

(38) C[C@@H]1CN([C@@H](C)CO)C(=O)c2cccc(NS(=O)(=O)c3ccccc3)c2O[C@@H]1CN(C)Cc1ccc(C(F)(F)F)cc1
(39) CCS(=O)(=O)NCC[C@H]1CC[C@H](NC(=O)C2CCC2)[C@H](CO)O1
(40) O=C(N[C@@H]1CC[C@@H](CCNS(=O)(=O)c2ccc(F)cc2)O[C@H]1CO)c1cnccn1
(41) O=C(N[C@@H]1CC[C@H](CCNS(=O)(=O)c2ccc(F)cc2)O[C@H]1CO)C1CCOCC1
(42) O=C(N[C@H]1CC[C@@H](CCNS(=O)(=O)c2ccc(F)cc2)O[C@H]1CO)C1CCOCC1

entry no.	38	39	40	41	42
Cneo AK release	5.5	-2.3	-0.1	-0.8	0.6
E-sel inducer	0.0	-0.4	-0.4	-0.5	0.0
DENV2 CPE	5.9	16.9	50.7*	-6.6	37.8*
Yeast UUG start	0.4	-7.5	-0.2	-2.1	6.0
